Data as given in ChEMBL document CHEMBL4196120, “Inhibition of Connexin Hemichannels by New Amphiphilic Aminoglycosides without Antibiotic Activity” (ACS Med Chem Lett, 2018).

How the values were obtained:
Escherichia coli = assay: Toxicity against Escherichia coli ATCC 25922 measured after 18 to 24 hrs; type: ADME, organism-based; conditions: in vivo
HeLa = assay: Cytotoxicity against human HeLa cells assessed as reduction in cell viability up to 100 ug/ml after 24 hrs by MTT assay; type: cell-based
Staphylococcus aureus = assay: Toxicity against Staphylococcus aureus ATCC 25923 measured after 18 to 24 hrs; type: organism-based; conditions: in vivo

Q: What does the source list for [N-]=[N+]=NC[C@H]1O[C@H](O[C@H]2[C@H](O)[C@@H](O[C@@H]3O[C@H](CO)[C@@H](O)[C@H](N=[N+]=[N-])[C@H]3O)[C@H](N=[N+]=[N-])C[C@@H]2N=[N+]=[N-])[C@H](O)[C@@H](O)[C@@H]1O?
A: MIC (Escherichia coli): ≥ 128 µg/mL; Activity (HeLa): Non-Toxic; MIC (Staphylococcus aureus): ≥ 128 µg/mL
